Results reported in patent US20200247889A1 (published 2020).

Sequences of proteins named here, by UniProt entry; tags and fusion partners are left off. Residues count along the entry.
UniProt Q9NP99, 21-234: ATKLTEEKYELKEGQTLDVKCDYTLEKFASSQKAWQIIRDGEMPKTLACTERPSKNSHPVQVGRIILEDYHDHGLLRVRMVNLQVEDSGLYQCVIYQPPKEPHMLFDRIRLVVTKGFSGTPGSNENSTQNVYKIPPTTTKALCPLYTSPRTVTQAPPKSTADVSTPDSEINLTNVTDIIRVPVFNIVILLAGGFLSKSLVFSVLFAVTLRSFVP

Legend:
human TREM1 [1] = molecular target: T1, human TREM1 (human, UniProt Q9NP99 21-234); assay: cell binding
human TREM1 [2] = molecular target: T1, human TREM1; assay: flow cytometry cell binding

Binder | EC50 (human TREM1 [1]) | EC50 (human TREM1 [2])
Pi-8421 (antibody, V domains shown) VH: EVQLVESGGGLVQPGGSLRLSCAASGFDISYSSIHWVRQAPGKGLEWVASIYSSYGSTYYADSVKGRFTISADTSKNTAYLQMNSLRAEDTAVYYCARYYYSHAGWYVSGYWPAIDYWGQGTLVTVSS VL: DIQMTQSPSSLSASVGDRVTITCRASQSVSSAVAWYQQKPGKAPKLLIYSASSLYSGVPSRFSGSRSGTDFTLTISSLQPEDFATYYCQQSSYSLITFGQGTKVEIK | 0.4 nM | 0.4 nM
mAb0170 (antibody, V domains shown) VH: EVQLVESGGGLVQPGGSLKLSCAASGFTFSTYAMHWVRQASGKGLEWVGRIRTKSSNYATYYAASVKGRFTISRDDSKNTAYLQMNSLKTEDTAVYYCTRDMGIRRQFAYWGQGTLVTVSS VL: DIVLTQSPDSLAVSLGERATINCRASESVDTFDYSFLHWYQQKPGQPPKLLIYRASNLESGVPDRFSGSGSGTDFTLTISSLQAEDVAVYYCQQSNEDPYTFGQGTKLEIK | 0.06 nM | 0.06 nM
